Sequences of proteins named here, by UniProt entry; tags and fusion partners are left off. Residues count along the entry.
UniProt P43220, 24-463: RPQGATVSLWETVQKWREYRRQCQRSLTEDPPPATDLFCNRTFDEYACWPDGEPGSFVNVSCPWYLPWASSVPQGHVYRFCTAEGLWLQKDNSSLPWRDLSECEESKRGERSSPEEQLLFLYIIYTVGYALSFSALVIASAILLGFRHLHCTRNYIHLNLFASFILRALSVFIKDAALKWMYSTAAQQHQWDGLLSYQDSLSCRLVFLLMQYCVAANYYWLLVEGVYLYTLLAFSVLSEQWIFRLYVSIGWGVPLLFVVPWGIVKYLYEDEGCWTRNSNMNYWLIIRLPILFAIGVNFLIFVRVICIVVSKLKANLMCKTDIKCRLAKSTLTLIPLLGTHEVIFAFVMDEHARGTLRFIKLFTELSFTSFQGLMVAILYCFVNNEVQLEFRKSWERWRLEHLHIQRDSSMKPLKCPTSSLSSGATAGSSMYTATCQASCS

According to US20240270821A1, “GIP/GLP1/GCG TRI-RECEPTOR AGONISTS AND USES THEREOF” (priority 2023, published 2024):

Target: hGLP-1R (Homo sapiens, UniProt P43220)
Test: Functional cAMP activity in the presence of 1% HSA
Format: cell-based
Conditions: read-out: cAMP Rel EC50, hGLP-1R

CC[C@H](C)[C@H](NC(=O)[C@H](Cc1ccccc1)NC(=O)[C@H](C)NC(=O)C(C)(C)NC(=O)[C@H](CCC(N)=O)NC(=O)[C@H](C)NC(=O)[C@H](CCCCNC(=O)CC[C@H](NC(=O)CC[C@H](NC(=O)CCCCCCCCCCCCCCCCC(=O)O)C(=O)O)C(=O)O)NC(=O)[C@H](CCCCN)NC(=O)[C@H](CC(=O)O)NC(=O)[C@H](CC(C)C)NC(=O)[C@H](CC(C)C)NC(=O)[C@@H](NC(=O)[C@H](CO)NC(=O)[C@H](Cc1ccncc1)NC(=O)[C@H](CC(=O)O)NC(=O)[C@H](CO)NC(=O)[C@@H](NC(=O)[C@](C)(Cc1ccccc1F)NC(=O)[C@@H](NC(=O)CNC(=O)[C@H](CCC(N)=O)NC(=O)C(C)(C)NC(=O)[C@@H](N)Cc1ccc(O)cc1)[C@@H](C)O)[C@@H](C)O)[C@@H](C)CC)C(=O)N[C@@H](CCC(=O)O)C(=O)N[C@@H](Cc1ccc(O)cc1)C(=O)N[C@@H](CC(C)C)C(=O)N[C@H](C(=O)N[C@@H](CCC(=O)O)C(=O)NCC(=O)NCC(=O)N1CCC[C@H]1C(=O)N[C@@H](CO)C(=O)N[C@@H](CO)C(=O)NCC(=O)N[C@@H](C)C(=O)N1CCC[C@H]1C(=O)N1CCC[C@H]1C(=O)N1CCC[C@H]1C(=O)N[C@@H](CO)C(=O)NCC(=O)N[C@H](C(=O)N[C@@H](CCC(=O)O)C(N)=O)[C@@H](C)O)[C@@H](C)O [Example 554]
EC50: 60.8 nM
